Source: publication PMC3365592 (European Journal of Medicinal Chemistry, 2012)

The chains behind the UniProt entries cited, without tags or fusion partners.
UniProt P19327, whole entry: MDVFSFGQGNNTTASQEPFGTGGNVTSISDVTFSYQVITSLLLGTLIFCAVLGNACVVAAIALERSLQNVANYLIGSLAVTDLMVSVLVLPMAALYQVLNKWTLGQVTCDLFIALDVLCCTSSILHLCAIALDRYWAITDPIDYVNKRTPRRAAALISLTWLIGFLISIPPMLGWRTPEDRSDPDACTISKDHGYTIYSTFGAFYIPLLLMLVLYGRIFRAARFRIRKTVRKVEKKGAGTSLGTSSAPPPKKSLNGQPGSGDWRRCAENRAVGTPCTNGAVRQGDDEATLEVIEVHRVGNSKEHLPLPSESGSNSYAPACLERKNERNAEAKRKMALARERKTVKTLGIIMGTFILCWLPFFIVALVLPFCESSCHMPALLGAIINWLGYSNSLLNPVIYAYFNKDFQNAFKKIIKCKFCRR

Target: 5-HT1A receptors (Rattus norvegicus, UniProt P19327)
Assay: 5-HT1A receptor binding experiments

Row | Ki [nM] | Structure (SMILES)
1 | 777 ± 118 | CC1CN(c2ccc3cc([N+](=O)[O-])ccc3n2)CCN1CCCCN1C(=O)CC2(CCCC2)CC1=O (stereo not drawn) [Compound 5, 8-{4-[2-Methyl-4-(6-nitro-quinolin-2-yl)-piperazin-1-yl]-butyl}-8-aza-spiro[4.5]-decane-7,9-dione]
2 | 221 ± 34.6 | CC1CN(c2ccc3cc([N+](=O)[O-])ccc3n2)CCN1CCCCN1C(=O)CC(C)(C)CC1=O (stereo not drawn) [Compound 7, 4,4-Dimethyl-1-{4-[2-methyl-4-(6-nitro-quinolin-2-yl)-piperazin-1-yl]-butyl}-piperidine-2,6-dione]
3 | 3200 ± 800 | CC(=O)Nc1ccc2nc(N3CCN(CCCCN4C(=O)CC5(CCCC5)CC4=O)CC3)ccc2c1 [Compound 11, N-(2-{4-[4-(7,9-Dioxo-8-azaspiro[4.5]dec-8-yl)butyl]piperazin-1-yl}quinolin-6-yl)-acetamide]
